Patent US11497751B2, “Modulators of Rho-associated protein kinase” (Redx Pharma PLC, priority 2018, dated 2022)

The chains behind the UniProt entries cited, without tags or fusion partners. Residues count along the entry.
UniProt O75116, 11-552 limits assumed: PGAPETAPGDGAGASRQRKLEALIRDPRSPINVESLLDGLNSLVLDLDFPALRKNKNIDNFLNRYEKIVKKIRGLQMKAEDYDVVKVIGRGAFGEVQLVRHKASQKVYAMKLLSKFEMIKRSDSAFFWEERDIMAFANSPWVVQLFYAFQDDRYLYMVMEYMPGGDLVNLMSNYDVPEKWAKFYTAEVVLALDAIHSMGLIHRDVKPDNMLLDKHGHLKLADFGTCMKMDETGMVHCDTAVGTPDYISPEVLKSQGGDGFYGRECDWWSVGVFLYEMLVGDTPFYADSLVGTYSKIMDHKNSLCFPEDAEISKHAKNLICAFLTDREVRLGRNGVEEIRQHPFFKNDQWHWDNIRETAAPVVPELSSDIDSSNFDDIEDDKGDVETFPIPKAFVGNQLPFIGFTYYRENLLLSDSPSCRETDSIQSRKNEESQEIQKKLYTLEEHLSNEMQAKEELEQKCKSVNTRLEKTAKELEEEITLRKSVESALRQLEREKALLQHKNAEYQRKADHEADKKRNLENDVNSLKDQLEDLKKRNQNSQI

target: N-terminal 6His-tagged ROCK2 catalytic domain 11-552 (Homo sapiens, UniProt O75116); assay: ROCK2 binding activity: ROCK2 inhibition, ADP-Glo Kinase Assay; settings: read-out: ADP-Glo kinase activity assay ROCK2 Category; 1.25 nM ROCK2, 100 μM long S6 peptide, 20 μM ATP; 1 hour pre-incubation
Description: Assay for ROCK2 inhibition was performed using the protein construct N-terminal 6His-tagged ROCK2 catalytic domain 11-552 (Dundee University, UK). Protein was purified from a baculovirus expression system. Long S6 peptide ([…]) was used as substrate. Kinase reactions were carried out in 15 μl volume in a 96-well plate (black, half area) using 1.25 nM constitutively active ROCK2 kinase, 100 μM long S6 peptide, 20 μM ATP and test compound in DMSO (or DMSO only for controls). The final concentration of DMSO was 1%. Assay buffer was 50 mM HEPES pH 7.5 supplemented with 0.2 mM EDTA, 10 mM magnesium acetate, 0.01% Tween-20, 1 mM DTT and 0.01% BSA. Test compounds were pre-incubated with ROCK2 kinase for 1 hour before addition of ATP and long S6 peptide. After incubation for a further 1 hour, the amount of ADP produced was measured using ADP-Glo Kinase Assay (Promega) as per manufacturer's instructions. The luminescence was measured on a PHERAstar FS (BMG Labtech). The concentration of test compound required to inhibit ADP production by 50% (the IC50) was calculated using a four-parameter logistic function with software by Dotmatics.
The category “+” refers to compounds with a ROCK2 IC50 value of >10 μM. The category “++” refers to compounds with a ROCK2 IC50 value of 10 to 3 μM. The category “+++” refers to compounds with a ROCK2 IC50 value of 3 to 0.3 μM. The category “++++” refers to compounds with a ROCK2 IC50 value of <0.3 μM.

SMILES | IC50 [nM]
Cc1cc2cn[nH]c2cc1-c1nc(Nc2ccc3[nH]ncc3c2Cl)n(C)n1 | 300 to 3000
COc1cc(-c2nc(Nc3ccc4[nH]ncc4c3Cl)n(C)n2)ccc1CNC(C)=O | 300 to 3000
CC(C)NC(=O)CN1CCCc2cc(-c3nc(Nc4ccc5[nH]ncc5c4Cl)n(C)n3)ccc21 | 300 to 3000
COc1ncccc1-c1nc(Nc2ccc3[nH]ncc3c2Cl)n(C)n1 | 300 to 3000
COc1cc(-c2nc(Nc3ccc4[nH]ncc4c3Cl)n(C)n2)ccc1C(=O)NC(C)C(F)(F)F (stereo not drawn) | < 300
Cn1nc(-c2ccc(C(=O)NCC(F)F)cc2)nc1Nc1ccc2[nH]ncc2c1C1CC1 | < 300
Cn1nc(C2=CCNCC2)nc1Nc1ccc2[nH]ncc2c1Cl | < 300
Cn1nc(-c2ccc(N3CCOCC3)nc2)nc1Nc1ccc2[nH]ncc2c1Cl | < 300

Second part, the molecule after the results:

IC50 [nM] | SMILES
< 300 | CC(C)CNC(=O)c1ccc(-c2nc(Nc3ccc4[nH]ncc4c3C3CC3)n(C)n2)cc1
< 300 | CC(NC(=O)c1ccc(-c2nc(Nc3ccc4[nH]ncc4c3C3CC3)n(C)n2)cc1)C(F)(F)F (stereo not drawn)
3000 to 10000 | COc1ccc(-c2nc(Nc3ccc4[nH]ncc4c3)nn2C)cc1OC
300 to 3000 | CN1CCN(Cc2ccc(-c3nc(Nc4ccc5[nH]ncc5c4Cl)n(C)n3)cc2)CC1
3000 to 10000 | Cn1nc(Br)nc1Nc1ccc2[nH]ncc2c1Cl
< 300 | COc1cccc(-c2nc(Nc3ccc4[nH]ncc4c3Cl)n(C)n2)c1
< 300 | Cn1nc(-c2cccc(O)c2)nc1Nc1ccc2[nH]ncc2c1Cl
